Here are results for two compounds from ChEMBL document CHEMBL1127071, “Structure-activity relationships of C-terminal endothelin hexapeptide antagonists” (J Med Chem, 1993).

Amino acid sequences for entries named in this document (tags omitted). A change or cut given only in a name is not applied to a line headed by its entry.
UniProt P26684: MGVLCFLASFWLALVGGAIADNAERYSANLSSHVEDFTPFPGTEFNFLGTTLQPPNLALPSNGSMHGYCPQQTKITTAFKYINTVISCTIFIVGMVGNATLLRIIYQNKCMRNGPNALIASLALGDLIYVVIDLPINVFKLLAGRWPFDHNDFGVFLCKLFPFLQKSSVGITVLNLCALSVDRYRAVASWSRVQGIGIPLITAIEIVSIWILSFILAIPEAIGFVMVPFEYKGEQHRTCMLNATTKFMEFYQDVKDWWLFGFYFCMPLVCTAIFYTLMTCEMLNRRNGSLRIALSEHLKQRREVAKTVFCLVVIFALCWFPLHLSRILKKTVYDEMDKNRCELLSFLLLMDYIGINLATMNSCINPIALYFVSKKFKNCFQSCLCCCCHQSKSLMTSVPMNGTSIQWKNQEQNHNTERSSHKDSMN

Experiment [1] concerns the target T1, Endothelin receptor type B (Rattus norvegicus, UniProt P21451).
T1 sequence (P21451 whole entry): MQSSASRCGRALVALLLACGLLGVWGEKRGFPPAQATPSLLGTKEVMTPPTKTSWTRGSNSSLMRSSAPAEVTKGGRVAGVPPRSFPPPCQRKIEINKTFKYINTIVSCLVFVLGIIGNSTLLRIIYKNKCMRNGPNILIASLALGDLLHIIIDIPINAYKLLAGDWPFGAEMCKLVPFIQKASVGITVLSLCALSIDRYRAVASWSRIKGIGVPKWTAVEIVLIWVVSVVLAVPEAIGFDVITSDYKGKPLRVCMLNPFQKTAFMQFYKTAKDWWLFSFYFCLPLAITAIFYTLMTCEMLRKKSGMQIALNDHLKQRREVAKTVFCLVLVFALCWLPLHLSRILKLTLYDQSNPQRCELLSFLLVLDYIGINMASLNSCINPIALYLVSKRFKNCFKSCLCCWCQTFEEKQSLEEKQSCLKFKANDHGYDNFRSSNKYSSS
As to the kind of experiment: Effective concentration against Endothelin B receptor from rat cerebellum. It is filed as tissue-based.

Experiment [2] concerns the target Endothelin receptor (Rattus norvegicus, UniProt P26684+P21451). As to the kind of experiment: Binding affinity against Endothelin receptor from rat heart ventricle. The class given is protein assay.

Structures are written as SMILES. pIC50: −log10 of the molar value.

A word on the pIC50: it is −log10 of the IC50, conventionally taken in molar units. A lower pIC50 goes with a large IC50. `CC[C@H](C)[C@H](NC(=O)[C@H](CC(=O)O)NC(=O)[C@H](CC(C)C)NC(=O)[C@@H](Cc1c[nH]c2ccccc12)NC(C)=O)C(=O)N[C@H](C(=O)N[C@@H](Cc1c[nH]c2ccccc12)C(=O)O)[C@@H](C)CC` showed a negative logarithm of the IC50 (pIC50) in experiment [1] of 6.35.
As a reminder, the IC50 is the concentration at which inhibition is half-maximal. Read a low IC50 as higher potency. As to `CC[C@H](C)[C@H](NC(=O)[C@H](CC(=O)O)NC(=O)[C@H](CC(C)C)NC(=O)[C@@H](Cc1ccc(-c2ccccc2)cc1)NC(C)=O)C(=O)N[C@H](C(=O)N[C@@H](Cc1c[nH]c2ccccc12)C(=O)O)[C@@H](C)CC`, the IC50 in experiment [2] is 4400 nM.
